Results: US6784186B1 (priority 1998, dated 2004)

How the values were obtained:
[1] = Rat inflamed paw test of Randall and Selitto
[2] = Mouse analgesia test of Hendershot and Forsaith
[3] = low subcutaneous or intraperitoneal doses, 10-300 μg/kg

With “S-methyllisothiocarbamoyl norheroin iodide” the analgesic activity ([1]; doses of 1-3 mg/kg) was “active” and the analgesic activity ([2]; doses of 1-3 mg/kg) was “active”.

With N-allylmorphinium iodide the analgesic activity ([1]; doses of 10 mg/kg) was “inactive” and the analgesic activity ([2]; doses of 10 mg/kg) was “inactive”.

In the case of N-methylnalorphninium iodide, the analgesic activity [1, 3] was “showed analgesic activity” and the analgesic activity [2, 3] was “showed analgesic activity”.
